# Results as given in ChEMBL document CHEMBL4354845, “Discovery and Structure-Activity Relationships of Nociceptin Receptor Partial Agonists That Afford Symptom Ablation in Parkinson's Disease Models” (J Med Chem, 2020).
# Chains of the proteins cited; added tags and fusions are not shown.
# UniProt P41146, whole entry: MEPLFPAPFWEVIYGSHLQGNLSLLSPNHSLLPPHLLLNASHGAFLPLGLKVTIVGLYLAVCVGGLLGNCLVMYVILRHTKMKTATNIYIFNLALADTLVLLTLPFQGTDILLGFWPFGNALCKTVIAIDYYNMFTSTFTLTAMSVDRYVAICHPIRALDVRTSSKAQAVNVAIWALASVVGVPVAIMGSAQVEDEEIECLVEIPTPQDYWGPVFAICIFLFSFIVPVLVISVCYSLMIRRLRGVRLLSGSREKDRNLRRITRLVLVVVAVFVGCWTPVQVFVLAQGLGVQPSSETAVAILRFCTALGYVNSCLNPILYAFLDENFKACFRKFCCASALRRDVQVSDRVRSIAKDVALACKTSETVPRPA
# Target: Nociceptin receptor (Homo sapiens) (UniProt P41146)
# Assay: Agonist activity at human NOP expressed in CHO cell membrane incubated for 60 mins by [35S]GTPgammaS binding assay relative to N/OFQ
smiles,measurement,value
CC(C)[C@H]1CC[C@@H](N2CCC(n3cc(CNC(=O)[C@@H](N)CCCNC(=N)N)c4ccccc43)CC2)CC1,Activity,11.1%
